Measurements as given in the NIST ThermoML archive (doi:10.1016/j.fluid.2015.05.002).

Details: Liquid; for vapor or sublimation pressure: Closed cell (Static) method

CCCCOCCCC [dibutyl ether]
Details	mass density [kg/m3]
298 K, 101.33 kPa, Vibrating tube method	763.8

Details	vapor or sublimation pressure [kPa]
430.15 K	159
435.15 K	178
440.15 K	200
445.15 K	224
450.15 K	251
453.15 K	267
458.15 K	297
463.15 K	329
468.15 K	363
473.15 K	401
483.15 K	486
493.15 K	584
503.15 K	696
508.15 K	758
